Assay results published in patent US10226462B2, “Detection and treatment of excessive hair shedding” (Samson Clinical Pty Ltd, priority 2014, dated 2019).

System: female pattern hair loss (Sinclair stage 2-5)
Conditions: minoxidil recommenced as monotherapy after stopping the combination capsule; 2 patients

How did the Recurrence of urticaria turn out when `Nc1cc(N2CCCCC2)nc(N)[n+]1[O-]` [minoxidil] was run?
The Recurrence of urticaria was “did not recur”.
